# Assay outcomes from PubChem.
# uPA generation: cell surface uPA generation inhibition. cell surface uPA generation assay, qHTS. Potency, µM (highest dose often 38.3 µM), for the others: at the highest dose activity change, negative = inhibition, actives largely listed as inhibitors. hit rate 0.31% among 330,000; active means well fitted inhibition curve with a large enough effect; inconclusive means small, poorly fitted or top-dose-only effect; inactive means no such curve, though single readings can be large or run the other way; tested in mouse RAW 264.7 cells; further: potency means the concentration at half of the fitted maximal effect; on the % scale 0 is the no-effect control and ±100 the full control effect; nearly all actives have a fitted effect of over 55% in size
# miR-21 FLuc: raises the signal of a miR-21 reporter | HeLa miR-21 FLuc reporter, luciferase, 48 h | Potency, µM (highest dose often 38.3 µM), without a hit: at the top dose reporter change, positive = more light | 340,000 tested, under 10 active; active = well fitted rising curve with a large enough effect; inconclusive = small, poorly fitted or top-dose-only effect; inactive = no such curve, though single readings can be large or run the other way;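 note: % of control where 0% means no effect; miR-21 action dims this reporter so a rising signal means less miR-21 action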
#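 HeLa miR-21-FLuc reporter line, endogenous miR-21; 2000 cells/well in DMEM/10% FBS; compound titration up to ~40uM final, 48 h, 37 degree Celsius; luciferase detection reagent, 15 min lysis, CCD luminescence.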
# TDP1 cell CPT: growth inhibition of DT40 Tdp1-/-;hTDP1 cells with camptothecin (screen for TDP1 inhibitors); chicken DT40 Tdp1-/-;hTDP1 cells + 20 nM CPT, ATP luminescence, 48 h; Potency, µM (doses to about 46.2 µM), inactives show at the highest dose activity change, negative = growth inhibition, usual class: inhibitors; hit rate 12% among 420,000; further: potency means the concentration at half of the fitted maximal effect; on the % scale 0 is the no-effect control and ±100 the full control effect; nearly all actives have a fitted effect of over 55% in size
#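 Cell growth measured by CellTiter-Glo luminescence after a minimum 48 h, 37 C compound exposure with 20 nM CPT in Tdp1-knockout DT40 cells stably expressing hTDP1, seeded 400/well; qHTS titration format.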
# TDP1 cell noCPT: qHTS for Inhibitors of human tyrosyl-DNA phosphodiesterase 1 (TDP1): qHTS in cells in absence of CPT; DT40 Tdp1-/- hTDP1 cells, no CPT, ATP luminescence, 48 h; AID 686978, 2013; Potency, µM (doses to about 46.2 µM), without a hit: top-dose activity change, negative = growth inhibition, usual class: inhibitors; hit rate 15% among 420,000; further: potency means the concentration at half of the fitted maximal effect; on the % scale 0 is the no-effect control and ±100 the full control effect; nearly all actives have a fitted effect of over 55% in size
#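 Growth of hTDP1-complemented DT40 Tdp1-knockout cells is measured by ATP luminescence after at least 48 hr compound exposure at 37 °C, with DMSO substituting for the 20 nM CPT used in the parallel screen.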
# TDP1 block: TDP1 (human) enzyme inhibition | Q9NUW8 | recombinant TDP1, AlphaScreen DNA substrate cleavage | Potency, µM (titrated, usually from 130 µM), for the others: at the top dose activity change, negative = inhibition, usual class: inhibitors | hit rate 0.28% among 350,000; further: potency means the concentration at half of the fitted maximal effect; on the % scale 0 is the no-effect control and ±100 the full control effect; nearly all actives have a fitted effect of over 40% in size
#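 Signal: AlphaScreen proximity between streptavidin donor and anti-FITC acceptor beads on intact substrate. Reaction: Tdp1 1 nM, substrate 15 nM final, 5 min RT after 15 min compound preincubation.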
# * hit, by the source's call; ? = inconclusive; . = no result given; [ ] = another dose, or the depositor's remark. This is a sample that favours compounds with a hit; in the whole collection about 16% have one here. Unless noted, the call rests on the fitted dose curve; in most records, active means well fitted curve in the direction sought with a large enough effect; inconclusive means small, poorly fitted or top-dose-only effect, or another doubt; inactive means no such curve, though single readings can be large; an effect the other way counts as inactive or inconclusive.
# Values in the order: TDP1 block | TDP1 cell CPT | miR-21 FLuc | uPA generation | TDP1 cell noCPT
Cc1oc2cc3oc(=O)c(CCC(=O)NCCC(=O)O)c(C)c3cc2c1C
→ . | 9% | 3% | ? | -15%
COc1cccc(CNC(=O)CCc2c(C)c3cc4c(C)coc4cc3oc2=O)c1
→ 5% | 13µM* | -11% | . | 16µM*
COc1ccc(CCNC(=O)CCc2c(C)c3cc4c(C)c(C)oc4cc3oc2=O)cc1
→ 0% | 10µM* | -20% | . | 21µM*
COc1cccc(CNC(=O)Cc2c(C)c3cc4c(C)coc4cc3oc2=O)c1
→ -5% | ? | 3% | . | ?
Cc1ccc(CNC(=O)CCc2c(C)c3cc4c(C)coc4cc3oc2=O)cc1
→ -2% | 16µM* | -14% | . | ?
Cc1coc2c(C)c3oc(=O)c(CCC(=O)NCCc4ccc(Cl)cc4)c(C)c3cc12
→ 7% | ? | -5% | . | 12µM*
Cc1coc2cc3oc(=O)c(CCC(=O)NCc4ccc(Cl)cc4)c(C)c3cc12
→ 5% | 10µM* | 2% | . | 26µM*
Cc1coc2cc3oc(=O)c(CCC(=O)NCc4ccccc4Cl)c(C)c3cc12
→ 0% | -19% | 5% | . | -2%
Cc1coc2c(C)c3oc(=O)c(CCC(=O)NCCCn4ccnc4)c(C)c3cc12
→ . | ? | -1% | 0% | ?
Cc1oc2cc3oc(=O)c(CCC(=O)NCCCN4CCCC4=O)c(C)c3cc2c1C
→ . | 15µM* | -21% | -14% | ?
Cc1c(CCC(=O)NCCCn2ccnc2)c(=O)oc2c(C)c3occ(C(C)(C)C)c3cc12
→ 8% | ? | 4% | -8% | 21µM*
COc1ccccc1CCNC(=O)CCc1c(C)c2cc3c(C)coc3cc2oc1=O
→ 7% | 16µM* | -15% | . | ?
CN(Cc1ccccc1)C(=O)COC(=O)CCC(=O)c1ccc(Cl)cc1
→ 0% | -22% | . | 23% | 4%
COc1ccc(NC(=O)CNC(c2ccccc2)c2ccccc2)cc1
→ . | ? | 2% | 0% | 26µM*
COc1ccccc1NC(=O)CNC(c1ccccc1)c1ccccc1
→ -19% | ? | -8% | 0% | ?
COc1cc(NC(=O)CNC(c2ccccc2)c2ccccc2)cc(OC)c1OC
→ . | 26µM* | 9% | 0% | 21µM*
COc1ccc(C)cc1NC(=O)CNC(c1ccccc1)c1ccc(C)cc1 (stereo not given)
→ . | 3.3µM* | 24% | 1.8µM* | 3.3µM*
COc1ccccc1C(CC(=O)Nc1ccc(Cl)cc1)c1ccc(OC(C)C)cc1 (stereo not given)
→ 2% | 16µM* | 0% | 0% | ?
Cc1cccc(CCNC(=O)c2ccc3c(c2)N(Cc2ccccc2F)C(=O)c2ccccc2S3)c1
→ -2% | -39% | 12% | . | ?
CCOC(=O)C(C)Sc1nc(=O)n2ccccc2n1 (stereo not given)
→ 0% | ? | 0% | -3% | ?
COC(=O)CNC(c1ccccc1)c1cc(Br)ccc1NC(=O)c1cc(OC)c(OC)c(OC)c1 (stereo not given)
→ 1%[12.3 µM] | 16µM* | 16% | . | 7.3µM*
COc1ccc(C(CC(=O)Nc2ccc(F)cc2)c2ccccc2)cc1 (stereo not given)
→ -2% | ? | -13% | 5% | ?
COc1ccc(NC(=O)CC(c2ccc(F)cc2)c2ccc(OC)cc2)cc1 (stereo not given)
→ -3% | ? | -4% | 5% | 15µM*
COc1ccc(N/N=C(C)/C(=N/O)C(=O)Nc2ccccc2)cc1
→ 8% | ? | -23% | -3% | 15µM*
Fc1ccc2nncc(SCc3ccccc3Cl)c2c1
→ . | ? | . | -8% | ?
Cc1cc(C)c2c(=O)n(CC(=O)NC3CCCC3)sc2n1
→ . | 2.9µM* | 3% | 4% | 4.1µM*
Cc1cc(C)c2c(=O)n(CC(=O)Nc3ccc(Br)c(C)c3)sc2n1
→ . | 8.2µM* | 17% | 3% | 9.2µM*
COc1ccc(OC)c(CCNC(=O)Cn2sc3nc(C)cc(C)c3c2=O)c1
→ 12% | . | 29% | . | .
Cc1cc(C)c2c(=O)n(CC(=O)Nc3cccc(Cl)c3C)sc2n1
→ -2% | 5.2µM* | 1% | 3% | 3.7µM*
CC(=O)Nc1ccc(Oc2cncc(Cl)c2)nc1
→ . | ? | 11% | -1% | ?

# (more compounds)
# Values in the order: TDP1 block | TDP1 cell CPT | miR-21 FLuc | uPA generation | TDP1 cell noCPT
CC(=O)Nc1ccc(NC(=O)C2CC(=O)Nc3nc4ccccc4n32)cc1 (stereo not given)
→ . | 4% | -3% | 1% | 7%
Cc1ccc(-n2c(-c3ccccc3)c[n+]3c2CCc2ccccc2-3)c(C)c1
→ -5% | 0.21µM* | ? | -15% | 0.037µM*
C/C(=N\NC(=O)c1ccccc1C)c1cccnc1
→ . | 4% | -17% | -16% | -1%
O=C1c2ccccc2C(=O)c2c1ccc1c(=O)n(C3CCCCC3)[nH]c21
→ 8% | ? | -10% | 0% | 23µM*
C#CCOCCOCCOCCNc1nc(N2CCN(C(=O)CCCCCCCCCCNC(=O)[C@H](CO)n3cc(CCCSC)nn3)CC2)nc(N2CCN(C(=O)CCCCCCCCCCNC(=O)[C@H](CO)n3cc(CCCSC)nn3)CC2)n1
→ -7% | 8.2µM* | . | -2% | 6.5µM*
C#CCOCCOCCOCCNc1nc(N2CCN(C(=O)CCCCCCCCCCNC(=O)[C@H]([C@@H](C)CC)n3cc(CCCCCN)nn3)CC2)nc(N2CCN(C(=O)CCCCCCCCCCNC(=O)[C@@H]([C@H](C)O)n3cc(C)nn3)CC2)n1
→ 7% | 16µM* | . | ? | ?
C#CCOCCOCCOCCNc1nc(N2CCN(C(=O)CCCCCCCCCCNC(=O)Cn3cc(CCCCCN)nn3)CC2)nc(N2CCN(C(=O)CCCCCCCCCCNC(=O)[C@H](CO)n3cc(CCCCCN)nn3)CC2)n1
→ 12% | ? | . | -9% | ?
C#CCOCCOCCOCCNc1nc(N2CCN(C(=O)CCCCCCCCCCNC(=O)Cn3cc(CCCCCN)nn3)CC2)nc(N2CCN(C(=O)CCCCCCCCCCNC(=O)[C@H]([C@@H](C)CC)n3cc(CCCCCN)nn3)CC2)n1
→ 6% | 23µM* | . | -26% | ?
C#CCOCCOCCOCCNc1nc(N2CCN(C(=O)CCCCCCCCCCNC(=O)[C@@H](CCSC)n3cc(CCO)nn3)CC2)nc(N2CCN(C(=O)CCCCCCCCCCNC(=O)[C@H]([C@@H](C)CC)n3cc(CCCCCN)nn3)CC2)n1
→ 13% | ? | . | ? | 16µM*
Cc1nnc2sc(SCC(=O)N3CCC(C)CC3)nn2c1=O
→ 5% | -3% | 3% | -6% | 11%
O=C(CN1CCOCC1)Nc1ccc(Cl)c(Cl)c1
→ . | -5% | -20% | -4% | -6%
O=C(CC1CCCC1)Nc1ccc(Cl)c(S(=O)(=O)N2CCOCC2)c1
→ 0% | ? | . | -7% | 16µM*

# Laid out differently: 4 of the compounds above
Structure: CCOC(=O)C(C)Sc1nc(=O)n2ccccc2n1 (stereo not given)
- TDP1 block = 0%
- TDP1 cell CPT = ?
- miR-21 FLuc = 0%
- uPA generation = -3%
- TDP1 cell noCPT = ?

Structure: COC(=O)CNC(c1ccccc1)c1cc(Br)ccc1NC(=O)c1cc(OC)c(OC)c(OC)c1 (stereo not given)
- TDP1 block = 1%[12.3 µM]
- TDP1 cell CPT = 16µM*
- miR-21 FLuc = 16%
- uPA generation = .
- TDP1 cell noCPT = 7.3µM*

Structure: COc1ccc(C(CC(=O)Nc2ccc(F)cc2)c2ccccc2)cc1 (stereo not given)
- TDP1 block = -2%
- TDP1 cell CPT = ?
- miR-21 FLuc = -13%
- uPA generation = 5%
- TDP1 cell noCPT = ?

Structure: COc1ccc(NC(=O)CC(c2ccc(F)cc2)c2ccc(OC)cc2)cc1 (stereo not given)
- TDP1 block = -3%
- TDP1 cell CPT = ?
- miR-21 FLuc = -4%
- uPA generation = 5%
- TDP1 cell noCPT = 15µM*
